The target in assay [1] is BACE1 (Aβ40 in HEK293-APPswe/lon cells) (Homo sapiens (Human), UniProt P56817). Kind of assay: BACE Inhibitor Whole Cell IC50 Determination Using HEK293-APPswe/lon Cells (Aβ40). It is filed as cell-based. The note with it: 4 hours.
The target in assay [2] is soluble human BACE1 catalytic domain (Homo sapiens (Human), UniProt P56817). Kind of assay: BACE1 HTRF FRET Assay.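 Also: cleavage of a quenched APP Swedish mutant peptide (QSY7 quencher, Europium donor) measured as rise in 620 nm fluorescence after 1.5 h at 30 °C, inhibition suppresses signal.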 It is filed as biochemical. Conditions: Ki calculated from IC50 with Cheng-Prusoff equation.

By UniProt entry, the sequences of proteins in these tests, tags left out. Residues count along the entry.
UniProt P56817, 46-501: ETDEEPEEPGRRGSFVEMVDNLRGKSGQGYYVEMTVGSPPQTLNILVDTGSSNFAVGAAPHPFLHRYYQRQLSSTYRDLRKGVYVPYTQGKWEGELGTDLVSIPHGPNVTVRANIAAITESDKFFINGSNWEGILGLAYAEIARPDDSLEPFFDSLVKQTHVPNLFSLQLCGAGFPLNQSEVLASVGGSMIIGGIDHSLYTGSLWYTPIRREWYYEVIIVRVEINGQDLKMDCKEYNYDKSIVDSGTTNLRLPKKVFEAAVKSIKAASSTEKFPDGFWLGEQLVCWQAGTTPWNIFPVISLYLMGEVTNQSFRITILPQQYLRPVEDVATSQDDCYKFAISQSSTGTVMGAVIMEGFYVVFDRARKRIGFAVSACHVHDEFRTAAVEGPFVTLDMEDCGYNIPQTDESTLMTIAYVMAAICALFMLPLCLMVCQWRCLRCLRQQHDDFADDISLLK
UniProt P56817, 75-416: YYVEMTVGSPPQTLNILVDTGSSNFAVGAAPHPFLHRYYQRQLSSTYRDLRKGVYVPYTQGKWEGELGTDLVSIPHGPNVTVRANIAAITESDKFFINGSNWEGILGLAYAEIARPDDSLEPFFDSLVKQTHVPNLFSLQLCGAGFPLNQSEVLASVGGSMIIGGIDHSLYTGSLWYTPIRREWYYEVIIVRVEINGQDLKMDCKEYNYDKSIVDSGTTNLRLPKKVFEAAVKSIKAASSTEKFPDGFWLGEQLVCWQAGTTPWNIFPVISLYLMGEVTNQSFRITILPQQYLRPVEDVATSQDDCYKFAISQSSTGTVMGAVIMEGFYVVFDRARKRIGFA

Regarding `CCOc1nc(N2C[C@H]3C(=O)N(C)C(N)=N[C@@]3(c3ccccc3)C2)nc(C)c1F` (racemic) [4 racemic], the IC50 in assay [1] stood at 323 nM. For the same compound, the inhibition constant (Ki) in assay [2] is 59 nM.

A word on the IC50: it is the point on the concentration scale where inhibition reaches its midpoint. A low value points to higher potency. What is called Ki is the equilibrium dissociation constant of an inhibitor or competing ligand from its target.

The values above are taken from patent publication US8541427B2, “Phenyl-substituted 2-imino-3-methyl pyrrolo pyrimidinone compounds as BACE-1 inhibitors, compositions, and their use” (Merck, Sharp & Dohme, Corp., priority 2008, dated 2013).
